Literature values in US9173950B2, “Vitamin D-ghrelin conjugates” (Extend Biosciences, Inc., priority 2012, dated 2015).

Settings: humans; cited from earlier work

Substance: vitamin D
- time retained in circulation by DBP, on average: 30 days
